In ChEMBL document CHEMBL3124874, “Development of selective inhibitors for aldehyde dehydrogenases based on substituted indole-2,3-diones” (J Med Chem, 2014) one finds IC50 data, which are given here for one compound.

The target of this experiment is T1, Aldehyde dehydrogenase, mitochondrial (Homo sapiens, UniProt P05091).
T1 sequence (P05091 whole entry): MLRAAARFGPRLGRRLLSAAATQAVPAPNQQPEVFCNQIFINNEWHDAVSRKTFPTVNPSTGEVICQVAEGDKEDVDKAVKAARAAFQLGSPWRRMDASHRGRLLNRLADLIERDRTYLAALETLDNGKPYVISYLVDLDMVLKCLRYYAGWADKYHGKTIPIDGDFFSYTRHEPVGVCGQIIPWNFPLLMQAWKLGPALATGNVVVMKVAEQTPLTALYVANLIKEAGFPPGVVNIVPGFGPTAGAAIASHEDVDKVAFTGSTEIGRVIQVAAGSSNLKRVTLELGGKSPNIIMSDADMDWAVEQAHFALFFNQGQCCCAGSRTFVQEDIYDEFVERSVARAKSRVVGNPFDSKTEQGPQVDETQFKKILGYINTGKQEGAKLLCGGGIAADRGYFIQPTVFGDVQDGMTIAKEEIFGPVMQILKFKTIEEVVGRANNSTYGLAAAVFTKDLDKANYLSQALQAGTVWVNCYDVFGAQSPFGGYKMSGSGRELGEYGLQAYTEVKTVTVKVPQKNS
Kind of experiment: Inhibition of human ALDH2 using propionaldehyde as substrate preincubated for 2 mins followed by substrate addition by spectrophotometry in presence of NAD+.

For `O=C1C(=O)N(C/C=C/c2ccccc2)c2ccc(Cl)cc21`, the IC50 was found to be 100 nM.

The term IC50 denotes the concentration at which inhibition is half-maximal.
